The source of these data is PMC10725471, “Chemical modulation of cytosolic BAX homodimer potentiates BAX activation and apoptosis” (Nature Communications, 2023).

The chains behind the UniProt entries cited, without tags or fusion partners.
UniProt Q07812, whole entry: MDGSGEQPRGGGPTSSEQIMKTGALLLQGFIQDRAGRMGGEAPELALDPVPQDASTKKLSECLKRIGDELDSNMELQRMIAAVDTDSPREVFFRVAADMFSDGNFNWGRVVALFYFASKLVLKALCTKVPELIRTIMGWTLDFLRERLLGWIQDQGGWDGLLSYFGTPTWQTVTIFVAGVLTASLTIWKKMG

Molecules are shown by their SMILES.

This assay concerns the target cytosolic inactive BAX dimer of CALU-6 cells (Homo sapiens, UniProt Q07812). Description: BN-PAGE assay for disruption of cytosolic inactive BAX dimer. It counts as biochemical. The following applies: CALU-6 cytosolic fraction, 50 µM, 1 h at 30 °C, on ice for BIM SAHB.

Turning to `O=C1/C(=N\Nc2nccs2)C(c2ccccc2)=NN1c1nc(-c2ccccc2)cs1`, the “disruption of cytosolic inactive BAX dimer (result in words)” value was “no capacity to disrupt the cytosolic inactive BAX dimer”.
